According to PubChem BioAssay (NCI):
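Method: 48-hour compound exposure of cells in 96-well plates, five concentrations, linear interpolation of endpoints. GI50: concentration for 50% inhibition of growth. The concentration for full growth arrest is given as TGI.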

How the values were obtained:
Assay in all cases: NCI-60 cell line screen, 48 h
PC-3 prostate = system: PC-3 prostate
MOLT-4 leukemia = system: MOLT-4 leukemia
SF-539 CNS = system: SF-539 CNS
HT29 colon = system: HT29 colon
TK-10 renal = system: TK-10 renal
SF-295 CNS = system: SF-295 CNS
OVCAR-3 ovarian = system: OVCAR-3 ovarian
BT-549 breast = system: BT-549 breast
SK-MEL-5 melanoma = system: SK-MEL-5 melanoma
OVCAR-5 ovarian = system: OVCAR-5 ovarian
K-562 leukemia = system: K-562 leukemia
SN12C renal = system: SN12C renal
CAKI-1 renal = system: CAKI-1 renal
HCT-116 colon = system: HCT-116 colon
SW-620 colon = system: SW-620 colon
HOP-92 NSCLC = system: HOP-92 NSCLC
NCI-H322M lung = system: NCI-H322M lung
786-0 renal = system: 786-0 renal
UACC-257 melanoma = system: UACC-257 melanoma
NCI-H23 lung = system: NCI-H23 lung
MCF7 breast = system: MCF7 breast
HS 578T breast = system: HS 578T breast
UACC-62 melanoma = system: UACC-62 melanoma
NCI-H226 lung = system: NCI-H226 lung
SR leukemia = system: SR leukemia
U251 CNS = system: U251 CNS
M14 melanoma = system: M14 melanoma
MDA-MB-435 = system: MDA-MB-435
HCC-2998 colon = system: HCC-2998 colon
MDA-MB-231 breast = system: MDA-MB-231 breast
A549 NSCLC = system: A549 NSCLC
RXF 393 renal = system: RXF 393 renal
A498 renal = system: A498 renal
SF-268 CNS = system: SF-268 CNS
COLO 205 colon = system: COLO 205 colon
SK-MEL-2 melanoma = system: SK-MEL-2 melanoma
HOP-62 NSCLC = system: HOP-62 NSCLC
UO-31 renal = system: UO-31 renal
HL-60(TB) leukemia = system: HL-60(TB) leukemia
NCI/ADR-RES ovarian = system: NCI/ADR-RES ovarian
RPMI-8226 leukemia = system: RPMI-8226 leukemia
ACHN renal = system: ACHN renal
SK-OV-3 ovarian = system: SK-OV-3 ovarian
T-47D breast = system: T-47D breast
KM12 colon = system: KM12 colon
LOX IMVI melanoma = system: LOX IMVI melanoma
OVCAR-8 ovarian = system: OVCAR-8 ovarian
CCRF-CEM leukemia = system: CCRF-CEM leukemia
DU-145 prostate = system: DU-145 prostate
HCT-15 colon = system: HCT-15 colon
NCI-H460 lung = system: NCI-H460 lung
SNB-75 CNS = system: SNB-75 CNS
OVCAR-4 ovarian = system: OVCAR-4 ovarian
SK-MEL-28 melanoma = system: SK-MEL-28 melanoma
MDA-N = system: MDA-N
EKVX NSCLC = system: EKVX NSCLC
NCI-H522 lung = system: NCI-H522 lung

Q: For O=P1(N(CCCl)CCCl)Oc2ccc(Cl)cc2C(C(Cl)(Cl)Cl)O1 (centres undefined), which GI50 (PC-3 prostate) is on record?
A: 11.8 µM

Q: What about the TGI (PC-3 prostate) of the same compound?
A: 24.3 µM

Q: What about the GI50 (MOLT-4 leukemia) of the same compound?
A: 9.54 µM

Q: What about the TGI (MOLT-4 leukemia) of the same compound?
A: 56.2 µM

Q: And the GI50 (SF-539 CNS)?
A: 17.3 µM

Q: What about the TGI (SF-539 CNS) of the same compound?
A: 31.2 µM

Q: What about the GI50 (HT29 colon) of the same compound?
A: 14.4 µM

Q: What about the TGI (HT29 colon) of the same compound?
A: 31.2 µM

Q: And the GI50 (TK-10 renal)?
A: 21.9 µM

Q: And the TGI (TK-10 renal)?
A: 36.4 µM

Q: And the GI50 (SF-295 CNS)?
A: 13 µM

Q: What about the TGI (SF-295 CNS) of the same compound?
A: 25.9 µM

Q: And the GI50 (OVCAR-3 ovarian)?
A: 14.4 µM

Q: And the TGI (OVCAR-3 ovarian)?
A: 27.5 µM

Q: And the GI50 (BT-549 breast)?
A: 14.6 µM

Q: What about the TGI (BT-549 breast) of the same compound?
A: 27.7 µM

Q: And the GI50 (SK-MEL-5 melanoma)?
A: 11.3 µM

Q: What about the TGI (SK-MEL-5 melanoma) of the same compound?
A: 23.6 µM

Q: And the GI50 (OVCAR-5 ovarian)?
A: 24.4 µM

Q: What about the TGI (OVCAR-5 ovarian) of the same compound?
A: 39.7 µM

Q: And the GI50 (K-562 leukemia)?
A: 4.53 µM

Q: What about the TGI (K-562 leukemia) of the same compound?
A: 65.5 µM

Q: What about the GI50 (SN12C renal) of the same compound?
A: 15.2 µM

Q: What about the TGI (SN12C renal) of the same compound?
A: 28.9 µM

Q: What about the GI50 (CAKI-1 renal) of the same compound?
A: 19.2 µM

Q: What about the TGI (CAKI-1 renal) of the same compound?
A: 34.3 µM

Q: What about the GI50 (HCT-116 colon) of the same compound?
A: 12.8 µM

Q: And the TGI (HCT-116 colon)?
A: 25.4 µM

Q: And the GI50 (SW-620 colon)?
A: 14.7 µM

Q: And the TGI (SW-620 colon)?
A: 28.3 µM

Q: What about the GI50 (HOP-92 NSCLC) of the same compound?
A: 15.3 µM

Q: And the TGI (HOP-92 NSCLC)?
A: 29.3 µM

Q: And the GI50 (NCI-H322M lung)?
A: 15.7 µM

Q: And the TGI (NCI-H322M lung)?
A: 29.3 µM

Q: What about the GI50 (786-0 renal) of the same compound?
A: 14.1 µM

Q: And the TGI (786-0 renal)?
A: 27.5 µM

Q: What about the GI50 (UACC-257 melanoma) of the same compound?
A: 14.8 µM

Q: What about the TGI (UACC-257 melanoma) of the same compound?
A: 28.1 µM

Q: What about the GI50 (NCI-H23 lung) of the same compound?
A: 15.1 µM

Q: What about the TGI (NCI-H23 lung) of the same compound?
A: 30.6 µM

Q: What about the GI50 (MCF7 breast) of the same compound?
A: 13.1 µM

Q: And the TGI (MCF7 breast)?
A: 26 µM

Q: What about the GI50 (HS 578T breast) of the same compound?
A: 25 µM

Q: What about the TGI (HS 578T breast) of the same compound?
A: 92.8 µM

Q: And the GI50 (UACC-62 melanoma)?
A: 11.2 µM

Q: What about the TGI (UACC-62 melanoma) of the same compound?
A: 23.7 µM

Q: And the GI50 (NCI-H226 lung)?
A: 16.5 µM

Q: And the TGI (NCI-H226 lung)?
A: 31.8 µM

Q: And the GI50 (SR leukemia)?
A: 5.26 µM

Q: And the TGI (SR leukemia)?
A: > 100 µM

Q: What about the GI50 (U251 CNS) of the same compound?
A: 18.3 µM

Q: What about the TGI (U251 CNS) of the same compound?
A: 32.2 µM

Q: And the GI50 (M14 melanoma)?
A: 15.6 µM

Q: What about the TGI (M14 melanoma) of the same compound?
A: 29 µM

Q: And the GI50 (MDA-MB-435)?
A: 11.9 µM

Q: And the TGI (MDA-MB-435)?
A: 24.2 µM

Q: What about the GI50 (HCC-2998 colon) of the same compound?
A: 6.33 µM

Q: What about the TGI (HCC-2998 colon) of the same compound?
A: 17.7 µM

Q: And the GI50 (MDA-MB-231 breast)?
A: 19.9 µM

Q: And the TGI (MDA-MB-231 breast)?
A: 38.7 µM

Q: And the GI50 (A549 NSCLC)?
A: 13.1 µM

Q: What about the TGI (A549 NSCLC) of the same compound?
A: 29.1 µM

Q: What about the GI50 (RXF 393 renal) of the same compound?
A: 14.9 µM

Q: And the TGI (RXF 393 renal)?
A: 30.8 µM

Q: And the GI50 (A498 renal)?
A: 17.5 µM

Q: And the TGI (A498 renal)?
A: 31.3 µM

Q: What about the GI50 (SF-268 CNS) of the same compound?
A: 15.9 µM

Q: What about the TGI (SF-268 CNS) of the same compound?
A: 30 µM

Q: What about the GI50 (COLO 205 colon) of the same compound?
A: 17.7 µM

Q: What about the TGI (COLO 205 colon) of the same compound?
A: 31.5 µM

Q: What about the GI50 (SK-MEL-2 melanoma) of the same compound?
A: 17.7 µM

Q: What about the TGI (SK-MEL-2 melanoma) of the same compound?
A: 33 µM

Q: And the GI50 (HOP-62 NSCLC)?
A: 12.1 µM

Q: And the TGI (HOP-62 NSCLC)?
A: 24.6 µM

Q: What about the GI50 (UO-31 renal) of the same compound?
A: 14.8 µM

Q: And the TGI (UO-31 renal)?
A: 28 µM

Q: And the GI50 (HL-60(TB) leukemia)?
A: 5.52 µM

Q: And the TGI (HL-60(TB) leukemia)?
A: > 100 µM

Q: And the GI50 (NCI/ADR-RES ovarian)?
A: 12.7 µM

Q: And the TGI (NCI/ADR-RES ovarian)?
A: 29.2 µM

Q: What about the GI50 (RPMI-8226 leukemia) of the same compound?
A: 5.98 µM

Q: What about the TGI (RPMI-8226 leukemia) of the same compound?
A: 54.3 µM

Q: What about the GI50 (ACHN renal) of the same compound?
A: 14.6 µM

Q: What about the TGI (ACHN renal) of the same compound?
A: 28.2 µM

Q: And the GI50 (SK-OV-3 ovarian)?
A: 14.9 µM

Q: And the TGI (SK-OV-3 ovarian)?
A: 28.1 µM

Q: And the GI50 (T-47D breast)?
A: 20.9 µM

Q: What about the TGI (T-47D breast) of the same compound?
A: 42.4 µM

Q: What about the GI50 (KM12 colon) of the same compound?
A: 14.2 µM

Q: And the TGI (KM12 colon)?
A: 27.4 µM

Q: And the GI50 (LOX IMVI melanoma)?
A: 13 µM

Q: What about the TGI (LOX IMVI melanoma) of the same compound?
A: 26.8 µM

Q: And the GI50 (OVCAR-8 ovarian)?
A: 14.3 µM

Q: What about the TGI (OVCAR-8 ovarian) of the same compound?
A: 27.5 µM

Q: What about the GI50 (CCRF-CEM leukemia) of the same compound?
A: 9.62 µM

Q: And the TGI (CCRF-CEM leukemia)?
A: 64.8 µM

Q: What about the GI50 (DU-145 prostate) of the same compound?
A: 14.8 µM

Q: And the TGI (DU-145 prostate)?
A: 28 µM

Q: What about the GI50 (HCT-15 colon) of the same compound?
A: 13.7 µM

Q: What about the TGI (HCT-15 colon) of the same compound?
A: 27 µM

Q: What about the GI50 (NCI-H460 lung) of the same compound?
A: 12.9 µM

Q: And the TGI (NCI-H460 lung)?
A: 26.2 µM

Q: And the GI50 (SNB-75 CNS)?
A: 12.7 µM

Q: What about the TGI (SNB-75 CNS) of the same compound?
A: 27.8 µM

Q: What about the GI50 (OVCAR-4 ovarian) of the same compound?
A: 16.9 µM

Q: And the TGI (OVCAR-4 ovarian)?
A: 39.3 µM

Q: And the GI50 (SK-MEL-28 melanoma)?
A: 16.9 µM

Q: And the TGI (SK-MEL-28 melanoma)?
A: 30.9 µM

Q: What about the GI50 (MDA-N) of the same compound?
A: 10.6 µM

Q: And the TGI (MDA-N)?
A: 22.5 µM

Q: And the GI50 (EKVX NSCLC)?
A: 17.3 µM

Q: What about the TGI (EKVX NSCLC) of the same compound?
A: 31 µM

Q: And the GI50 (NCI-H522 lung)?
A: 12.4 µM

Q: What about the TGI (NCI-H522 lung) of the same compound?
A: 25.5 µM
